Values of other authors, collected in article PMC6470842 (Pharmaceutics, 2019).

Settings: cited from earlier work

Compound: CN(CCOc1ccc(NS(C)(=O)=O)cc1)CCc1ccc(NS(C)(=O)=O)cc1 [dofetilide]
- AUC increase when co-administered with cimetidine: up to 1.5 fold
